Measurements reported in patent US20230212174A1, “PYRROLO[2,1-F][1,2,4]TRIAZINE DERIVATIVE AND USE THEREOF” (Tencent Technology (Shenzhen) Company Limited, priority 2021, published 2023).
pIC50: −log10 of the molar value.

Protein sequences, listed by entry. Tags and fused reporters are not part of them.
UniProt P33981, whole entry: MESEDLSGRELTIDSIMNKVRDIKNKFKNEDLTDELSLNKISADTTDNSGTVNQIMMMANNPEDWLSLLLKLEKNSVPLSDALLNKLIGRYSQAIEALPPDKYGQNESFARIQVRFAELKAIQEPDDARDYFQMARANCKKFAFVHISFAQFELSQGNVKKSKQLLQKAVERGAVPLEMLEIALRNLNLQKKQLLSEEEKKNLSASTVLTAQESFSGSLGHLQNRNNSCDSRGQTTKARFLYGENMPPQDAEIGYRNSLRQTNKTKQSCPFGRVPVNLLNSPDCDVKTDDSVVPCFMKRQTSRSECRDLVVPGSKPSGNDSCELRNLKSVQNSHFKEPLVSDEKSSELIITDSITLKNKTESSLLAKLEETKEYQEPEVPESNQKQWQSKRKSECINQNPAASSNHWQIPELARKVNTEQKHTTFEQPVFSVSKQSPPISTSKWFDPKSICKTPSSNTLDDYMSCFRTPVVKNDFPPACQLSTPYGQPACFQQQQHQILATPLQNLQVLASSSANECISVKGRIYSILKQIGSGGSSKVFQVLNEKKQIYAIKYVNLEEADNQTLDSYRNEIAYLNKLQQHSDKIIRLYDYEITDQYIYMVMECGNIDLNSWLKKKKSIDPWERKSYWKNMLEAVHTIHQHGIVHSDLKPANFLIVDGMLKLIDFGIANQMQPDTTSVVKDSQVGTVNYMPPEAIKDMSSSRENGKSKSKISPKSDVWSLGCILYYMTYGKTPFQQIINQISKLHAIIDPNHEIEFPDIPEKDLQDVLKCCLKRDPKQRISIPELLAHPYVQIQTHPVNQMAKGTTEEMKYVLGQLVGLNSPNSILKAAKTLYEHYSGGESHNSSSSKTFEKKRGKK

Target: TTK (Homo sapiens, UniProt P33981)
Assay: TTK inhibitory activity (kinase reaction, Fluorescein-PolyGT substrate, antibody/EDTA stop, Envision read)
Settings: read-out: TTK IC50; 0.5 nM TTK, 7 uM ATP, 0.2 uM Fluorescein-PolyGT, 28° C., 30 min

CCOc1cc(-c2nncn2C)ccc1Nc1ncc2ccc(C3=CCCCC3)n2n1
pIC50: 8.62
